Laboratory results taken from patent US10670605B2, “Cysteine reactive probes and uses thereof” (The Scripps Research Institute, priority 2015, dated 2020).

By UniProt entry, the sequences of proteins in these tests, tags left out.
UniProt O75874, whole entry R132H, looked up: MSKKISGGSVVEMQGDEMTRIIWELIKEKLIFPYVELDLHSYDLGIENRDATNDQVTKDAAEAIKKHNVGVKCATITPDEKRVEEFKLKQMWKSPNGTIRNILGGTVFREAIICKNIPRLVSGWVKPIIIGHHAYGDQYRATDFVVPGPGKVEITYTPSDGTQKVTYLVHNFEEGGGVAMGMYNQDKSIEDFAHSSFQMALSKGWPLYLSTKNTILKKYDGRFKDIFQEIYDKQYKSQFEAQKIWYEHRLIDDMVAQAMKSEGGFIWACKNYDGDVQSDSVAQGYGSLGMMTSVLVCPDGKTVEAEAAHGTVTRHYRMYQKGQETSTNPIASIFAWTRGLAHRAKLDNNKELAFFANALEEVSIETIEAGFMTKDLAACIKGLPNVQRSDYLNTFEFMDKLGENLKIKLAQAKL

Molecular target: R132H-IDH1 in MUM2C cells (Homo sapiens, UniProt O75874, R132H)
Experiment: IDH1 2-hydroxyglutarate (2-HG) formation assay
Settings: 50 μM, 2 h in situ, assayed ex situ

O=C(CCl)N1CCC(C(O)(c2ccccc2)c2ccccc2)CC1
2-HG production by R132H cell lysates: near-completely blocked
